Activity calls are given as the source filed them.
Assays:
[1] = cells; format: functional
[2] = target: Kappa-type opioid receptor (Homo sapiens, UniProt P41145); assay: SAR analysis of small molecule antagonists of the kappa opioid receptor via a luminescent beta-arrestin assay - Set 3. [Related pubchem assays (depositor defined):AID1777, AID1778, AID1785, AID1786, AID1966, AID2133, AID2136, AID2285, AID2495]; format: functional

By UniProt entry, the sequences of proteins in these tests, tags left out. Where a name states a change or a piece, a line headed by the entry shows the natural chain unless it says otherwise.
UniProt P41145: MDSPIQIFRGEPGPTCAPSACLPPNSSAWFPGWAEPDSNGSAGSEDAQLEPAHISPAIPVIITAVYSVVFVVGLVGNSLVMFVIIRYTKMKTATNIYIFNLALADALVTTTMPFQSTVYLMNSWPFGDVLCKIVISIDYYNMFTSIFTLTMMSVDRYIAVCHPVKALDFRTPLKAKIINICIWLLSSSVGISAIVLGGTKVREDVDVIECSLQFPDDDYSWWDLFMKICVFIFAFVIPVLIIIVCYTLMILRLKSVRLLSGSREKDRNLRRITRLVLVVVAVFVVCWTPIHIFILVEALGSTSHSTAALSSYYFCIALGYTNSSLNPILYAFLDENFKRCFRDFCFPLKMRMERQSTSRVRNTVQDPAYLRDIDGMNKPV

Compound | IC50 [1] | IC50 [2]
O=C(Nc1ccc(Br)cn1)c1ccc([N+](=O)[O-])o1 | active: 2140 nM | 
Cc1ccc(S(=O)(=O)NCc2ccc(C(=O)NCCN(Cc3ccc(Br)cc3)C(C)C)cc2)cc1 |  | active: 662 nM

From ChEMBL document CHEMBL1201862, “PubChem BioAssay data set” (2004)
